Experimental data from patent US4866206A, “2-Halomethyl derivatives of 2-amino acids” (Merrell Dow France et Cie, priority 1988, dated 1989).

The chains behind the UniProt entries cited, without tags or fusion partners. Where a name states a change or a piece, a line headed by the entry shows the natural chain unless it says otherwise.
UniProt P09057: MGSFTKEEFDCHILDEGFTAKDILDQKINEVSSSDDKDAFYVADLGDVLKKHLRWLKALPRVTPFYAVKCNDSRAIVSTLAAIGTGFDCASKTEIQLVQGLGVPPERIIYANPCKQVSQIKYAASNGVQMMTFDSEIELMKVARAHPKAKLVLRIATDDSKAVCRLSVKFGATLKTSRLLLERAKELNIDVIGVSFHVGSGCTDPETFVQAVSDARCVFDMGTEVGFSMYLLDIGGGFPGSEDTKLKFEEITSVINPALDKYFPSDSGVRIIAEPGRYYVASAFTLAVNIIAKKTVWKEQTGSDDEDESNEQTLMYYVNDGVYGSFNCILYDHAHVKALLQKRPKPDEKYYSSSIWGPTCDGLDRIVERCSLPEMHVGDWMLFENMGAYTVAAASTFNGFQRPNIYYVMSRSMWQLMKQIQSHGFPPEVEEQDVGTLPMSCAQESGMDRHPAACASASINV

Biological target: rat liver ornithine decarboxylase (Rattus norvegicus, UniProt P09057)
Test: time-dependent inhibition of rat liver ODC (in vitro)
Assay type: biochemical
Details: concentration of compound which gives half-maximal rate of inhibition

In the case of NCCCCC(N)(CCl)C(=O)O (stereo not shown) [MCML, 2-chloromethyl-2,6-diaminohexanoic acid], the “K I” value is reported as “no apparent saturation”.
